Test [1] is filed under the species Mus musculus. The note with it: 0.3 mg/kg.
The species entered for test [2] is Mus musculus. The note with it: 0.3 mg/kg. The source holds these as a separate data set.
The species named for test [3] is Mus musculus. The conditions noted are these: 0.3 mg/kg. The source holds these as a separate data set.
The species entered for test [4] is Mus musculus. The conditions noted are these: 0.3 mg/kg. The source holds these as a separate data set.
Test [5] has as its system Mus musculus. Kind of test: Induction of hypothermia in mouse assessed as change in body temperature at 5 mg/kg, ip administered 30 mins before test and measured 30 mins post dose in presence of 0.3 mg/kg, sc 5HT1A receptor antagonist WAY 100635. It is filed as functional, organism-based.
In test [6] the test system is Mus musculus. Put plainly: Induction of hypothermia in mouse assessed as change in body temperature at 5 mg/kg, ip administered 30 mins before test and measured 60 mins post dose in presence of 0.3 mg/kg, sc 5HT1A receptor antagonist WAY 100635. It is filed as functional, organism-based.

For `COc1ccccc1N1CCN(CCN(C(=O)C2CCCCC2)c2ccccn2)CC1`, the deltaT was -0.2 °C in test [1], -0.1 °C in test [2], -0.1 °C in test [3] and 0 °C in test [4].

Take `CCCN(CCC)C1CCc2cccc(O)c2C1` (stereo unspecified): the deltaT in test [5] is -0.8 °C; in test [6] it was -0.1 °C.

Source of the values: ChEMBL document CHEMBL3352178, “Antidepressant- and anxiolytic-like activity of 7-phenylpiperazinylalkyl-1,3-dimethyl-purine-2,6-dione derivatives with diversified 5-HT₁A receptor functional profile” (Bioorg Med Chem, 2015).
